High-throughput results (PubChem)
TDP1 cell CPT – DT40-hTDP1 cell growth loss with CPT | chicken DT40 Tdp1-/-;hTDP1 cells + 20 nM CPT, ATP luminescence, 48 h | 420,000 tested, 12% active | Potency, µM (top dose mostly 46.2 µM), actives largely listed as inhibitors | AID 686979; note: nearly all actives have a fitted effect of over 55% in size
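Cell growth measured by CellTiter-Glo luminescence after a minimum 48 h, 37 C compound exposure with 20 nM CPT in Tdp1-knockout DT40 cells stably expressing hTDP1, seeded 400/well; qHTS titration format.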
miR-21 reporter – raises the signal of a miR-21 reporter | HeLa miR-21 FLuc reporter, luciferase, 48 h | Potency, µM (doses to about 38.3 µM) | 340,000 tested, under 10 active | AID 2288; active = well fitted rising curve with a large enough effect; inconclusive = small, poorly fitted or top-dose-only effect; inactive = no such curve, though single readings can be large or run the other way;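 note: miR-21 action dims this reporter so a rising signal means less miR-21 action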
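Luminescence from a firefly luciferase reporter carrying a miR-21 binding site downstream, stably expressed under a CMV promoter in HeLa cells that make miR-21 endogenously, reports miRNA modulation after 48 h compound exposure up to approximately 40uM final.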
TDP1 inh – TDP1 (human) enzyme inhibition | Q9NUW8 | recombinant TDP1, AlphaScreen DNA substrate cleavage | Potency, µM (series often up to 130 µM), hits mostly inhibitors | 350,000 tested, 0.28% active; note: nearly all actives have a fitted effect of over 40% in size
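Here, a 5' biotin and 3' phosphotyrosine-FITC DNA oligonucleotide reports Tdp1 activity: intact substrate bridges AlphaScreen beads, while cleavage leaves a 3' phosphate and drops signal. All incubations at room temperature.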
TDP1 cell noCPT – qHTS for Inhibitors of human tyrosyl-DNA phosphodiesterase 1 (TDP1): qHTS in cells in absence of CPT. DT40 Tdp1-/- hTDP1 cells, no CPT, ATP luminescence, 48 h. Potency, µM (titrated, usually from 46.2 µM), actives largely listed as inhibitors. 420,000 tested, 15% active; note: nearly all actives have a fitted effect of over 55% in size
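Luminescent ATP content (CellTiter-Glo) served as the growth readout. Knockout chicken DT40 cells expressing human TDP1 were exposed to compounds without camptothecin for a minimum 48 hr at 37 °C.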
uPA surface inh – cell surface uPA generation inhibition; Potency, µM (titrated, usually from 38.3 µM), actives largely listed as inhibitors; 330,000 tested, 0.31% active; cell surface uPA generation assay, qHTS; AID 540303; active = well fitted inhibition curve with a large enough effect; inconclusive = small, poorly fitted or top-dose-only effect; inactive = no such curve, though single readings can be large or run the other way; tested in mouse RAW 264.7 cells; note: nearly all actives have a fitted effect of over 55% in size
Each line names hits and unclear results; the compound was inactive in the other large screens. Sampled rows, rich in hits. Any-hit rate of the full collection: about 16%. Unless noted, calls come from the whole dose curve; as a rule, active = well fitted curve in the direction sought with a large enough effect; inconclusive = small, poorly fitted or top-dose-only effect, or another doubt; inactive = no such curve, though single readings can be large; an effect the other way counts as inactive or inconclusive.

COc1ccc(/C=C/C(=O)NC(=S)Nc2ccccc2C(=O)NC2CCCCC2)cc1	TDP1 cell CPT inconclusive, TDP1 cell noCPT inconclusive
CCOc1ccc(NC(=S)NC(=O)/C=C/c2ccc(C)cc2)c([N+](=O)[O-])c1	TDP1 cell CPT 14.6µM, TDP1 cell noCPT 13µM
COc1cc(OC)cc(-c2cc(N3C(=O)Nc4ccccc4N3O)n[nH]2)c1	none
CCOc1ccc(NC(=S)N(Cc2ccc(Cl)cc2)Cc2ccco2)cc1	TDP1 cell CPT inconclusive, TDP1 cell noCPT inconclusive
O=C(/C=C/c1ccccc1)NC(=S)Nc1ccccc1C(=O)NC1CCCCC1	TDP1 cell CPT inconclusive, TDP1 cell noCPT inconclusive
O=C(/C=C/c1ccc(F)cc1)NC(=S)Nc1ccccc1C(=O)NC1CCCCC1	TDP1 cell CPT 16.4µM, TDP1 cell noCPT 13µM
Cc1ccc(/C=C/C(=O)Nc2ccccc2C(N)=O)cc1	TDP1 cell CPT 20.6µM, TDP1 cell noCPT inconclusive
Cc1nc2ccccc2n1CC(=O)c1ccc(O)c(O)c1	none (no result: miR-21 reporter, TDP1 inh)
CCOC(=O)c1ccc(N2C(=O)c3n[nH]c(-c4cccs4)c3C2c2ccc(C(C)C)cc2)cc1 (stereo not drawn)	TDP1 cell CPT inconclusive, miR-21 reporter inconclusive, TDP1 cell noCPT 16.4µM (no result: uPA surface inh)
CCOC(=O)c1ccc(N2C(=O)c3n[nH]c(C)c3C2c2cccc(Br)c2)cc1 (stereo not drawn)	TDP1 cell CPT inconclusive, TDP1 cell noCPT inconclusive (no result: uPA surface inh)
CCOC(=O)c1ccc(N2C(=O)c3n[nH]c(-c4cccs4)c3C2c2cccc(O)c2)cc1 (stereo not drawn)	TDP1 cell CPT 16.4µM, miR-21 reporter inconclusive, TDP1 cell noCPT 20.6µM (no result: uPA surface inh)
CCOC(=O)c1ccc(N2C(=O)c3n[nH]c(-c4cccs4)c3C2c2ccc(OCC)cc2)cc1 (stereo not drawn)	TDP1 cell CPT 29.1µM, miR-21 reporter inconclusive, TDP1 cell noCPT 11.6µM (no result: uPA surface inh)
CCOC(=O)c1ccc(N2C(=O)c3n[nH]c(-c4cccs4)c3C2c2ccc(CC)cc2)cc1 (stereo not drawn)	TDP1 cell CPT 14.6µM, miR-21 reporter inconclusive, TDP1 cell noCPT 11.6µM (no result: uPA surface inh)
Cc1cccc(C(=O)NNS(=O)(=O)c2ccc(F)cc2)c1O	TDP1 cell CPT inconclusive, TDP1 cell noCPT inconclusive
COC(=O)C1(CO)NC(c2cccs2)C2C(=O)N(c3ccccc3)C(=O)C21 (stereo not drawn)	none
Cc1cc(C)cc(NC(=O)c2cccc(N3C(=O)C4C5C=CC(C5)C4C3=O)c2)c1 (stereo not drawn)	none
O=C(OCc1ccccc1)N(CCCCN(CCCNCc1ccccc1)C(=O)OCc1ccccc1)CCCNCc1ccccc1	TDP1 cell CPT 5.17µM, TDP1 cell noCPT 5.17µM (no result: miR-21 reporter, TDP1 inh)
CC1CCCCN1C(=O)c1ccc(C(=O)Nc2ccc(F)cc2)cc1 (stereo not drawn)	TDP1 cell noCPT inconclusive (no result: miR-21 reporter, TDP1 inh)
Cc1ccc2sc(N(CCCN(C)C)C(=O)c3ccc(S(=O)(=O)N(C)C4CCCCC4)cc3)nc2c1C	TDP1 cell CPT 9.2µM, TDP1 cell noCPT 5.8µM, uPA surface inh inconclusive (no result: miR-21 reporter, TDP1 inh)
CC(=O)c1ccc(C(=O)N(Cc2cccnc2)c2nc3c(C)c(C)ccc3s2)cc1	TDP1 cell CPT 23.1µM, TDP1 cell noCPT 16.4µM (no result: uPA surface inh)
CC(=O)c1ccc(C(=O)N(CCCN(C)C)c2nc3c(C)c(C)ccc3s2)cc1	TDP1 cell CPT 18.4µM, TDP1 cell noCPT 23.1µM (no result: uPA surface inh)
CCN(Cc1ccccc1)S(=O)(=O)c1ccc(C(=O)N(CCCN(C)C)c2nc3c(C)c(C)ccc3s2)cc1	TDP1 cell CPT inconclusive, TDP1 cell noCPT 16.4µM (no result: miR-21 reporter)
Cc1onc(-c2c(F)cccc2Cl)c1C(=O)NCC1COc2ccccc2O1 (stereo not drawn)	TDP1 cell CPT inconclusive, TDP1 cell noCPT inconclusive
CCN(CC)CCN(C(=O)c1ccc(S(=O)(=O)N(C)C2CCCCC2)cc1)c1nc2c(C)cccc2s1	TDP1 cell CPT 23.1µM, TDP1 cell noCPT 20.6µM
O=C(Cc1ccccc1)NCCc1csc2nc(-c3ccc(Cl)cc3)nn12	TDP1 cell CPT 11.6µM, TDP1 cell noCPT 9.2µM (no result: uPA surface inh)
Cc1cccc(-c2nc3scc(CCNC(=O)c4ccccc4Cl)n3n2)c1	TDP1 cell CPT inconclusive, TDP1 cell noCPT 20.6µM (no result: uPA surface inh)
O=C(Cc1ccc(F)cc1)NCCc1csc2nc(-c3ccc(Cl)cc3)nn12	TDP1 cell CPT inconclusive, TDP1 cell noCPT 20.6µM (no result: uPA surface inh)
O=C(NCCc1csc2nc(-c3ccc(F)cc3)nn12)c1ccco1	TDP1 cell CPT inconclusive, TDP1 cell noCPT 16.4µM (no result: uPA surface inh)
Cc1ccccc1-c1nc2scc(CCNC(=O)c3ccco3)n2n1	TDP1 cell CPT inconclusive, TDP1 cell noCPT inconclusive (no result: uPA surface inh)
O=C(Cc1ccc(Cl)cc1)NCCc1csc2nc(-c3ccccc3F)nn12	none (no result: uPA surface inh)
Cc1ccc(-c2nc3scc(CCNC(=O)c4cccc(Br)c4)n3n2)cc1	TDP1 cell CPT inconclusive, TDP1 cell noCPT inconclusive (no result: uPA surface inh)
CC(SC1=NS(=O)(=O)c2ccccc21)C(=O)O (stereo not drawn)	TDP1 cell CPT inconclusive, TDP1 cell noCPT inconclusive (no result: miR-21 reporter, uPA surface inh)
Cc1cc(-c2nnc3n2CCCCC3)c(C)n1-c1ccccc1	TDP1 cell CPT inconclusive, TDP1 cell noCPT 16.4µM
CCOC(=O)c1ccc(Nc2nc(C(=O)OCC)nc3ccccc23)cc1	TDP1 cell CPT 5.8µM, TDP1 cell noCPT 2.59µM
CCOC(=O)c1nc(Nc2ccc(N3CCC(C)CC3)cc2)c2ccccc2n1	TDP1 cell CPT 7.31µM, TDP1 cell noCPT 5.8µM (no result: TDP1 inh)
CCOC(=O)c1nc(Nc2ccc(C(=O)O)cc2)c2ccccc2n1	none
CCOC(=O)c1nc(Nc2ccc(C(=O)OC(C)C)cc2)c2ccccc2n1	TDP1 cell CPT 5.17µM, TDP1 cell noCPT 4.11µM (no result: TDP1 inh, uPA surface inh)
CCOC(=O)c1nc(Nc2ccc(Nc3ccccc3)cc2)c2ccccc2n1	TDP1 cell CPT 13µM, TDP1 cell noCPT 7.31µM, uPA surface inh inconclusive
